A word on the IC50: it is the point on the concentration scale where inhibition reaches its midpoint.

The test can be described thus: Inhibition of Pseudomonas aeruginosa thymidylate kinase expressed in Escherichia coli BL21 (DE3) cells assessed as phosphorylation of dTMP to dTDP after 20 mins by spectrophotometric analysis. The method, boiled down:
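PaTMK from pET15b in E. coli BL21 DE3, purified by HisTrap and Superdex 200, used at 40 nM. dTDP formation was coupled via PK/LDH/NDP kinase to NADH oxidation (A340) over 20 min at 25 °C. Conditions: 2 mM ATP, 54 μM TMP, 2 mM PEP, 0.22 mM NADH, HEPES pH 8.0. 20-point 1.67-fold dilutions from 200 or 100 μM were run in duplicate; IC50 from initial rates, averaged over ≥2 runs.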
`Cn1c(=O)[nH]c2ncc(-c3ccccc3)cc21`: the IC50 amounted to 58 µM. As to `Cn1c(=O)[nH]c2ncc(-c3cccc(C(N)=O)c3)cc21`, the IC50 worked out at 0.44 µM.

Regarding `Cc1cn([C@H]2C[C@H](O)[C@@H](CF)O2)c(=O)[nH]c1=O`, the IC50 was determined as 20 µM.

Values taken from ChEMBL document CHEMBL1955766, “Structure guided development of novel thymidine mimetics targeting Pseudomonas aeruginosa thymidylate kinase: from hit to lead generation” (J Med Chem, 2012).
